{
  "source": "patent US20220400686A1",
  "about": "“COMPOSITIONS AND METHODS FOR ON-DEMAND RELEASE OF ANTIMICROBIAL AGENTS” (priority 2019, published 2022)",
  "origin": "cited, not measured here",
  "conditions": "previously shown (Hernandez et al. 2014); cited from earlier work",
  "data": [
    {"substance": "/5Carboxyl/mCmGTTmCmG/3Acryd/ [0 PS oligo]", "values": [
      {"measurement": "stability to mouse and human serum", "result": "enhanced stability"}
    ]}
  ]
}
